Laboratory results reported in US20230340491A1, “COMPOSITIONS AND METHODS FOR TREATING METABOLIC AND CARDIOVASCULAR DISEASES” (UNIVERSITY OF ROCHESTER, priority 2020, published 2023).

The chains behind the UniProt entries cited, without tags or fusion partners. Where a name states a change or a piece, a line headed by the entry shows the natural chain unless it says otherwise.
UniProt O94806: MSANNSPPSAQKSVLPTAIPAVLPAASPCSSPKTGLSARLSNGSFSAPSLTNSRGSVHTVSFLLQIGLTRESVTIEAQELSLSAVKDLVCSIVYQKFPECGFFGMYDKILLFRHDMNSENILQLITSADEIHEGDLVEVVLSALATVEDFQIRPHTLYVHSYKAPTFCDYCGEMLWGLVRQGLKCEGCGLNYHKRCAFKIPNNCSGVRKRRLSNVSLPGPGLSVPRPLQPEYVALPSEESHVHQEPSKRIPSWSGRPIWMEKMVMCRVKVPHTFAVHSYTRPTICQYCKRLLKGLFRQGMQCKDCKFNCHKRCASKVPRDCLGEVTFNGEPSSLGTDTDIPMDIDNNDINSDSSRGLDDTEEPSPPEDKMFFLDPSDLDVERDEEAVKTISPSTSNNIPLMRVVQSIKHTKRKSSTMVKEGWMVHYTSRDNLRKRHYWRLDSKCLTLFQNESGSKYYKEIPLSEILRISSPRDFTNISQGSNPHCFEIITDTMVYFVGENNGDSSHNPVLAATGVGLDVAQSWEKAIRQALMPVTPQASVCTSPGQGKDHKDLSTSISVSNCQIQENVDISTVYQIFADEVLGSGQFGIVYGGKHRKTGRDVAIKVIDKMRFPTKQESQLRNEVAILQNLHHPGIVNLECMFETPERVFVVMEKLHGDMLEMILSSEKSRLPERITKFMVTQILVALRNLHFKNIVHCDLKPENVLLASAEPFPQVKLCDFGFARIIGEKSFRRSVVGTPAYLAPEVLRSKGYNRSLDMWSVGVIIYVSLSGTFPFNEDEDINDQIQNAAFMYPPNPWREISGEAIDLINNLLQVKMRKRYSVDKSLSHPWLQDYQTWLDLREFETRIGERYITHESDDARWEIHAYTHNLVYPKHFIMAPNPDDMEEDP

Assays:
HFD-fed C57BL/6J mice = assay: HFD-induced obesity and NAFLD in C57BL/6J mice treated with CRT0066101; format: in vivo, mouse
From the text: The mouse fat and liver tissues from the experimental mice were harvested after oral administration one and a half month.

PKD3 = PKD3 (Homo sapiens, UniProt O94806); conditions: read-out: IC50 for PKD3; selectively inhibits PKD3; cited from earlier work

SMILES: CC[C@@H](N)CNc1ccnc(-c2cc(-c3cnn(C)c3)ccc2O)n1 [CRT0066101]
- body weight after treatment, growth curve (FIG. 3A) (WD-fed ApoE-/- mice; 8 weeks WD, then 100 ug/10 g per day oral on continued WD, vs vehicle): rapidly decreased
- NAFLD activity score (NAS) (FIG. 3F) (WD-fed ApoE-/- mice; H&E, Sirius Red, Oil Red O staining): alleviated
- body weight growth curve during treatment (FIG. 2A) (HFD-fed C57BL/6J mice; HFD 6 weeks, then 10 mg/kg/day oral gavage on continued HFD, vs vehicle (H2O)): greatly promoted body weight loss
- time after stopping administration until body weight reached the level of vehicle-treated mice (FIG. 2B) (HFD-fed C57BL/6J mice; after stopping CRT0066101, HFD-fed mice): around 7 weeks
- IC50 (PKD3): 2 nM
